Laboratory results from patent US8012481B2, “Composition and method for inducing or restoring locomotor functions in an animal” (Universite Laval, priority 2004, dated 2011).

System: paraplegic mice (lumbar spinal cord circuitry for hindlimb locomotion)
Assay: Hindlimb movement generation (LM/NLM) on a motor-driven treadmill in complete spinal cord transected mice
Settings: mouse, in vivo

Structure (SMILES): CCCN1CCC[C@@H]2Cc3n[nH]cc3C[C@H]21 [Quinpirole]
- induction of LM: did not induce LM
